The source of these data is BindingDB's records for doi:10.1021/jm0704200.

Experiment [1] in a line: Agonist activity at human dopamine D2 receptor expressed in HEK293 cells by mitogenesis assay.
Experiment [2] in a line: Antagonist activity at human dopamine D2 receptor expressed in HEK293 cells by mitogenesis assay.

By EC50 is commonly meant the concentration that produces a half-maximal response. The IC50 is the concentration that gives 50% inhibition. `COc1ccccc1N1CCN(CCCCNC(=O)c2ccc(-c3ccccn3)cc2)CC1` [N-(4-(4-(2-methoxyphenyl)piperazin-1-yl)butyl)-4-pyridin-2-ylbenzamide]: the EC50 in experiment [1] worked out at 114 nM. In experiment [2], this compound displayed a concentration for half-maximal inhibition (IC50) of 107 nM.
Take `COc1ccccc1N1CCN(CCCCNC(=O)c2ccc3c(c2)Cc2ccccc2-3)CC1` [N-(4-(4-(2-methoxyphenyl)piperazin-1-yl)butyl)-9H-fluorene-2-carboxamide]: in experiment [2], it took 224 nM to reach half-maximal inhibition (IC50).
